# Experimental logP (octanol/water) values from OPERA 2.9

Values as listed in the OPERA 2.9 repository of K. Mansouri.

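The OPERA project collected these measurements from public sources as training and test data for property models. The files give a single number for a compound and property, which may rest on several reports. Method, purity and exact conditions of the single measurements are not given. The measured form (salt, isomer or mixture) is not always the one drawn. Some upstream entries may be estimates or bounds without being marked so.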

The octanol-water partition coefficient is given as log10; larger values mean a more lipophilic compound.
"n/a" marks a cell with nothing listed here.
"via" names the databases from which the curators took the value.

| structure (SMILES) | name | logP (octanol/water) | via |
|---|---|---|---|
| ClC1=C(Cl)[C@]2(Cl)C(Cl)=C(Cl)[C@H]3[C@H]1[C@H](Cl)C[C@H]32 | Alpha-Chlordene | 5.66 | OCHEM |
| CCCCCC(=O)OC(=O)CCCCC | Hexanoic anhydride | 4.45 | eChemPortal |
| NN1CC2CCCC2C1 (stereo unspecified) | Hexahydrocyclopenta[c]pyrrol-2(1H)-amine | 1.18 | eChemPortal |
| CCCCC(CC)COCCCN (stereo unspecified) | 3-((2-Ethylhexyl)oxy)propylamine | 2.6 | eChemPortal |
| CC1=C(/C=C/C(C)=C/C=C/C(C)=C/CO)C(C)(C)CC=C1 | Vitamin A2 | 7.41 | OCHEM |
| CCC(CC)C1CC(C)(O)CCO1 (stereo unspecified) | 2H-Pyran-4-ol, 2-(1-ethylpropyl)tetrahydro-4-methyl- | 2.19 | eChemPortal |
| CCN(CC)CCCN | 1,3-Propanediamine, N,N-diethyl- | 0.36 | eChemPortal |
| CCN(CCC(C)C)c1ccc2c(c1)Oc1cc(C)c(Nc3ccccc3)cc1C21OC(=O)c2ccccc21 (stereo unspecified) | n/a | 4.2 | eChemPortal |
| CCCCCCCCCCCCCCCCO | 1-Hexadecanol | 6.675 | eChemPortal |
| FC(F)(F)C(F)(F)C(F)(F)C(F)(C(F)(F)F)C(F)(F)F | Perfluoroisohexane | 3.74 | eChemPortal |
| Cc1ccc([N+](=O)[O-])cc1Cl | 2-Chloro-1-methyl-4-nitrobenzene | 3 | OCHEM |
| CCC(=O)O[C@]1(C(=O)CCl)[C@@H](C)C[C@H]2[C@@H]3C[C@H](F)C4=CC(=O)C=C[C@]4(C)[C@@]3(F)[C@@H](O)C[C@@]21C | Halobetasol propionate | 2.9 | PubChem |
| Nc1cc(S(=O)(=O)[O-])cc2cc(S(=O)(=O)[O-])c(N=Nc3ccccc3)c(O)c12.[Na+].[Na+] | D&C Red No. 33 | -2.09 | eChemPortal |
| Cc1oncc1C(=O)Nc1ccc(C(F)(F)F)cc1 | Leflunomide | 2.8 | PubChem |
| COc1cc(S(=O)(=O)[O-])c(C)cc1NC(=O)C(/N=N/c1ccc(-c2nc3ccc(C)c(S(=O)(=O)[O-])c3s2)cc1)C(C)=O.[Na+].[Na+] (stereo partly drawn) | n/a | -1.925 | eChemPortal |
| CCCCCCCC[Si](OC)(OC)OC | Trimethoxycaprylylsilane | 3.9 | eChemPortal |
| COC(=O)c1ccc2cc(C(=O)OC)ccc2c1 | Dimethyl 2,6-naphthalenedicarboxylate | 3.5 | eChemPortal |
| CCOC(=O)C1CCCO1 (stereo unspecified) | ETHYL TETRAHYDRO-2-FUROATE | 1.11 | eChemPortal |
| CCCCC(CC)C1OCCO1 (stereo unspecified) | 1,3-Dioxolane, 2-(1-ethylpentyl)- | 4.3 | eChemPortal |
| O=C(OCc1ccccc1)c1ccccc1O | Benzyl salicylate | 4 | OCHEM, OFMPub, eChemPortal |
| O=S(=O)(O)Nc1cccnc1 | N-3-Pyridinylsulfamic acid | -0.49 | OCHEM |
| CC(=O)O[BH-](OC(C)=O)OC(C)=O.[Na+] | Sodium triacetoxyborohydride | -2.88 | eChemPortal |
| O=P1(CC(c2ccccc2)P2(=O)Oc3ccccc3-c3ccccc32)Oc2ccccc2-c2ccccc21 (stereo unspecified) | n/a | 2.3 | eChemPortal |
| C/N=C(\c1ccccc1Cl)C1(O)CCCC1 | 1-(2-Chloro-N-methylbenzimidoyl)cyclopentanol | 3.2 | eChemPortal |
| CC1=NN(c2cccc(S(=O)(=O)[O-])c2)C(=N)C1/N=N/c1ccc(S(=O)(=O)c2ccc(/N=N/C3C(=N)N(c4cccc(S(=O)(=O)[O-])c4)N=C3C)cc2)cc1.[Na+].[Na+] (stereo partly drawn) | n/a | 0.58 | eChemPortal |
| Cc1ccc(S(=O)(=O)NC(=O)Nc2cccc(OS(=O)(=O)c3ccc(C)cc3)c2)cc1 | Pergafast 201 | 2.6 | eChemPortal |
| CC(C)(C=O)CC1=CCC2CC1C2(C)C (stereo unspecified) | n/a | 5.4 | eChemPortal |
| COC(=O)[C@@H]1CCC[C@H](C)C1 (relative stereo) | n/a | 3.7 | eChemPortal |
| O=C(OCCOC(=O)c1ccc2c(c1)C(=O)OC2=O)c1ccc2c(c1)C(=O)OC2=O | n/a | 3.33 | eChemPortal |
| CCCCCCCCCCC(CCCCCCCC)COC(=O)[C@@H]1CCC(=O)N1 (stereo partly drawn) | 2-Octyldodecyl 5-oxo-L-prolinate | 6.97 | eChemPortal |
| CCCCCC1CCC(=O)CC1 | 4-Pentylcyclohexanone | 4.5 | eChemPortal |
| OCc1ccc(Br)cc1 | 4-Bromobenzyl alcohol | 1.59 | eChemPortal |
| CC(C)[C@@H]1CC[C@@H](C)C[C@H]1OC(=O)[C@@H]1O[C@@H](O)CS1 | n/a | 3.18 | eChemPortal |

The last 2 entries again:

| structure (SMILES) | name | logP (octanol/water) | via |
|---|---|---|---|
| OCc1ccc(Br)cc1 | 4-Bromobenzyl alcohol | 1.59 | eChemPortal |
| CC(C)[C@@H]1CC[C@@H](C)C[C@H]1OC(=O)[C@@H]1O[C@@H](O)CS1 | n/a | 3.18 | eChemPortal |